# Apparent affinities of Ab-14 variants for a coronavirus HR2 peptide

Antigen: PDVDLGDISGINAS, a 14-residue peptide of the SARS-CoV-2 spike HR2 region.

Each scFv is VH, three GGGGS repeats, VL, as in the parent Ab-14, and differs from it in the CDRs of the heavy chain only.
VH: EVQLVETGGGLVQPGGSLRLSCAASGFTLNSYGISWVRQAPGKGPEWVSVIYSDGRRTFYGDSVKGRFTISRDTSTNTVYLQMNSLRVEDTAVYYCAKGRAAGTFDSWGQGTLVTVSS
VL: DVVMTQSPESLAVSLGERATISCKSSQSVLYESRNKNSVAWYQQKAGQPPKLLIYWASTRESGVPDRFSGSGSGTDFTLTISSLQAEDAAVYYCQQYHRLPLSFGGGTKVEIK

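The starting antibody came from a phage panning campaign against this peptide. This is the validation round: designs drawn from the data on random variants, tested in the same kind of assay. Several design methods are mixed in this list. In AlphaSeq, yeast of one mating type display the scFv and yeast of the other type display the target. Mating (16 h, 30 °C) was followed by selection of diploids and sequencing of their barcodes. Read counts were normalised to the haploid input and turned into Kd by a linear fit to BCL2-family pairs of known affinity, for each replicate. There are six technical replicates.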

Each variant is given by its three heavy chain CDRs, as the data file delimits them; those of the parent are GFTLNSYGIS, VIYSDGRRTFYGDSVK, GRAAGTFDS. Each Kd is an estimate from the mating assay, the geometric mean of the replicates in which the pair was seen; lower is stronger. Where no diploid with the target was found in any replicate, the entry reads "no signal": below detection, most likely a poor binder, though not proof of it. The authors' rule: three or more of the six replicates give a measured affinity, fewer mean a poor binder. The range of this assay differs from that of the first round, and the authors advise against merging the two. As a blank, each scFv also met three strains without target: over all heavy chain designs, 1% of these pairings were detected, typically at 120 nM and seldom below 7.0 nM. For each scFv, signals with the empty controls are counted beside the result.

CDR-H1	CDR-H2	CDR-H3	Kd (apparent)	replicates with signal	control signals
GFDLNEYGIS	VIYADGQRTFYADSVK	GEVAGTFDQ	450 pM	6/6	1/18
GFQLNEYGIS	VIYSDGRRTFYADSVK	GRDAGTFDS	1.1 nM	6/6	0/18
GFTLNSYGIS	VIYSDGRRTFYGDSVK	WRAAGTSDS	no signal	0/6	1/18
GFNLNEYGIS	VIYADGRRTFYADSVK	GETAGTFDV	160 pM	6/6	0/18
GFRLNSYGIS	VIYSDGRRTFYQDSVK	GQNAGTFDS	no signal	0/6	0/18
GFTLNDYGIS	VIYSGGRRTFYHDSVK	GRAAGTFDT	no signal	0/6	0/18
GNDIDEYGIS	VIYADGRRTMYDEAVK	GEIAGSFFH	no signal	0/6	0/18
GFTLNSYGIS	VIYSDGRRTMYDDSVK	GQEAGTFDS	3.0 nM	6/6	0/18
GFTLNSYGIS	VIYSDGHRTFYDDSVK	GQLAGTFDT	no signal	0/6	0/18
GFSLNSYGIS	VIYSDGRRTFYADDVK	GTAAGTFDS	2.5 nM	6/6	2/18
GFTLNSYGIS	VIYSDGIRTFYADSVK	GRAAGTFDS	2.7 nM	6/6	3/18
GFSLNNYGIS	VIYSDGRRTFYGDSVK	GKTAGTFDS	1.8 nM	6/6	0/18
GFDLNEYGIS	VIYADGMRTAYADSVK	GNVAGTFDA	270 pM	6/6	0/18
GFTLNSYGIS	VIYSDARRTWYSDSVK	GRAGGTFDS	84 nM	5/6	0/18
GFSLNSYGIS	VIYSDGRRTFYVDDVK	GRTAGTFDQ	3.2 nM	6/6	0/18
GFDLNSYGIS	VIYSDGKRTFYGDSVK	GKAAGTFDL	2.6 nM	6/6	0/18
KFSLESYGIS	VIYSDGRRTFYGDSVK	GQAAGTFDS	10 nM	1/6	0/18
DFNLNEYGIS	VIYADGQRASYDDKVK	GQIGGTFDD	390 nM	1/6	0/18
GFTLESYGIS	VIYSDGRRTFYADEVK	GRAAGTFDS	no signal	0/6	0/18
GFCLGSYGIS	VIYADGLRTFYGDSVK	GRAAGTICS	no signal	0/6	0/18
GFTLNDYGIS	VIYSDGRRTFYGDSVK	GRVAGTFDQ	2.3 nM	6/6	0/18
GFTLNDYGWS	VIYSDGRRTFYGPSVK	GRAAGTFDS	no signal	0/6	0/18
GFTLSSYGIS	VIYSDGKRTFYGDDVK	GRAAGTFPS	no signal	0/6	0/18
GFDLNEYGIS	VIYADGLRTAYSDSVK	GQNAGTFDV	1.3 nM	6/6	0/18
GFTLGSYGIS	VIYSDGRRTFYGDSVK	GRAPATFDS	no signal	0/6	0/18
GFTLDSYGIS	VIYSDGRRTFYGDSVK	GRGAGTFDS	no signal	0/6	0/18
GFTLQEYGIS	VIYSDGRRTFYGDSVK	GTANGTFDS	no signal	0/6	1/18
GDGLQEYGIS	VIYADGFRSSYANSVK	GTNTGIFMV	no signal	0/6	0/18
GFDLNEYGIS	VIYADGKRTAYADDVK	GEVAGTFDL	440 pM	6/6	0/18
GFTLNDYGIS	VIYSDGRRTAYQDSVK	GRAAGTFDS	1.4 nM	6/6	0/18
RFTLESYGIS	VIYADGRRTFYGDSVK	GRAAGTFKS	no signal	0/6	0/18
GFTLNSYGIS	VIYADGRRTFYGDQVK	GRAAGTFKS	no signal	0/6	0/18
GFDLNSYGIS	VIYSDGRRTFYEDSVK	GRTAGTFDS	440 pM	6/6	0/18
GFELDEYGIS	VIYADGKRKFYDQAVK	GKTGGVILD	no signal	0/6	0/18
GFTLNQYGIS	VIFSDGPRTFYSDSVK	GRAAGFFDS	no signal	0/6	0/18
GFDLNSYGIS	VIYSDGRRTFYGDSVR	GSAAGTFES	15 nM	6/6	0/18
GFDLNEYGIS	VIYADGRRTFYADSVK	GNQGGTFDL	3.1 nM	6/6	0/18
GFSLNSYGIS	VIYSDGRRTFYGDSVK	GKTAGTFDD	3.2 nM	6/6	0/18
GFDLDEYGIS	VIYADGVRKAYSDSVK	GNVAGTFDV	130 pM	6/6	0/18
GFDIEEYGIS	VIYADGLRTMVQNSVK	GELGQKFKV	no signal	0/6	0/18
GFDLDEYGIS	VIYADGMRTFYSDSVK	GEVAGTFDV	1.8 nM	6/6	0/18
GFTPNSYGIS	VIYSDGRRTFIGDSVK	GREAGTFDC	no signal	0/6	0/18
GFTLESYGIS	VIYSDGRRTFYNDSVK	GRAAGTFDS	43 nM	6/6	1/18
GFDLNEYGIS	VIYADGRRTFYTDSVK	GQLAGTFDS	290 pM	6/6	1/18
GFNLNSYGIS	VIYSDGRRTFYADHVK	GNAAGTFDS	27 nM	5/6	0/18
GFDLDEYGIS	VIYADGMRTAYSDSVK	GNQAGTFDQ	500 pM	6/6	0/18
GFNLDEYGVS	VIYADGQRTQYAQDVK	GKTGFHLFI	220 pM	6/6	0/18

The first 2 entries again:

CDR-H1	CDR-H2	CDR-H3	Kd (apparent)	replicates with signal	control signals
GFDLNEYGIS	VIYADGQRTFYADSVK	GEVAGTFDQ	450 pM	6/6	1/18
GFQLNEYGIS	VIYSDGRRTFYADSVK	GRDAGTFDS	1.1 nM	6/6	0/18

The measurements come from Li et al. 2023 (doi:10.1038/s41467-023-39022-2) through the FLAb antibody collection.